Measured values as given in ChEMBL document CHEMBL4406913, “INCB050465 (Parsaclisib), a Novel Next-Generation Inhibitor of Phosphoinositide 3-Kinase Delta (PI3Kδ)” (ACS Med Chem Lett, 2019).

Biological target: T1, Phosphatidylinositol 4,5-bisphosphate 3-kinase catalytic subunit delta isoform (Homo sapiens, UniProt O00329)
T1 sequence (O00329 whole entry): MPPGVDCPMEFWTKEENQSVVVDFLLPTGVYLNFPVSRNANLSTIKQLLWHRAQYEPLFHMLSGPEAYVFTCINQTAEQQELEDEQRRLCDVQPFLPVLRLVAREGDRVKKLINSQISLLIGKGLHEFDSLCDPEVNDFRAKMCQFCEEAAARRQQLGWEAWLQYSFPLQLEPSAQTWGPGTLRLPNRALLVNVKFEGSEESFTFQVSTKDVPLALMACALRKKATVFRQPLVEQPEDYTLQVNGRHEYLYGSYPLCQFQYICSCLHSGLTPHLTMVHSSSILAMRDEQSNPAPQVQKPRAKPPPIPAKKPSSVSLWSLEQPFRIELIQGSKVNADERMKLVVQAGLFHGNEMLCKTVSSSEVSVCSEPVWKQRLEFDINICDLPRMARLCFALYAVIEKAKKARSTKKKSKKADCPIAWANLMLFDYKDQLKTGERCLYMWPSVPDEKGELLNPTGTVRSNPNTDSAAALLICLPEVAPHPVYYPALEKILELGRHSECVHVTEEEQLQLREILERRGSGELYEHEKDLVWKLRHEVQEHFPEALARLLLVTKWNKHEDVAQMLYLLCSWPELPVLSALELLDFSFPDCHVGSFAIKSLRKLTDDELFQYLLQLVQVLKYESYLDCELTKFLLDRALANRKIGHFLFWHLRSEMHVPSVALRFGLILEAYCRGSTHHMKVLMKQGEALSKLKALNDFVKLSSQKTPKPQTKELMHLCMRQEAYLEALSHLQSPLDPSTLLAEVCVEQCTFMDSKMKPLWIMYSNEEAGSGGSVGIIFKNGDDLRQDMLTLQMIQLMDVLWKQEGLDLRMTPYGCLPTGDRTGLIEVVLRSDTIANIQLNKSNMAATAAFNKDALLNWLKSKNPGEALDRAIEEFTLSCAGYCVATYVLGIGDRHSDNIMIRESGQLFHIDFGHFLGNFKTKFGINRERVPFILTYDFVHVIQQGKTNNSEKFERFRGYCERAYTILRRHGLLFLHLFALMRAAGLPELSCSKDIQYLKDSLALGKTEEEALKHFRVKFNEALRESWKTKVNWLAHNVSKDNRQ

IC50	Structure (SMILES)
3.6 nM	COc1c([C@H](C)Nc2ncnc3[nH]cnc23)cc(Cl)c(C)c1-c1ccc(S(C)(=O)=O)cc1
13 nM	C[C@H](Nc1ncnc2[nH]cnc12)c1cc(Cl)c2ccnnc2c1-c1cccc(F)c1
